Source: PMC10770148, “Transport and inhibition mechanism for VMAT2-mediated synaptic vesicle loading of monoamines” (Cell Research, 2024)

By UniProt entry, the sequences of proteins in these tests, tags left out.
UniProt Q05940, whole entry N305A: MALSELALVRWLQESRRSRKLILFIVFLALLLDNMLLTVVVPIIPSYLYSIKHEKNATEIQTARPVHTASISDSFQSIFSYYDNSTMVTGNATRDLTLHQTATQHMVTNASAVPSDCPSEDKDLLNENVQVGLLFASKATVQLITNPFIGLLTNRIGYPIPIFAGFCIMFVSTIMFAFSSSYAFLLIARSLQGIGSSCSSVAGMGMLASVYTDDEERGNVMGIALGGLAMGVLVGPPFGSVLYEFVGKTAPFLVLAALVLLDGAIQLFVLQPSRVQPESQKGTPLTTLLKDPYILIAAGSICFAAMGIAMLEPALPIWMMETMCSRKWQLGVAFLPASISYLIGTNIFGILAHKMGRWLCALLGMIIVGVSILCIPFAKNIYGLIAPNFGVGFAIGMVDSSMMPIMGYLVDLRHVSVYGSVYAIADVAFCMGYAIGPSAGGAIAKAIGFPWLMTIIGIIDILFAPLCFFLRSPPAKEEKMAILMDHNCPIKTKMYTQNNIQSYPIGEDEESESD

Molecular target: T1, VMAT2 N305A (Homo sapiens, UniProt Q05940, N305A)
T1 construct: transfected with the full-length WT hVMAT2-eGFP or the mutant plasmids; expressed in transfected cells; host or cells: HEK 293T
Assay: Inhibition of FFN246 uptake, VMAT2 N305A mutant
Type: cell-based
Conditions: HEK 293T cells, FFN246 1 μM (Fig. S11)

Q: How did the “RES inhibition of FFN246 uptake, N305A substitution” value turn out when `COC(=O)[C@H]1[C@H]2C[C@@H]3c4[nH]c5cc(OC)ccc5c4CCN3C[C@H]2C[C@@H](OC(=O)c2cc(OC)c(OC)c(OC)c2)[C@@H]1OC` [RES, reserpine] was run?
A: minor impact on RES inhibition
